Earlier results as cited in patent publication US11707610B2, “Ingestible device for delivery of therapeutic agent to the gastrointestinal tract” (BIORA THERAPEUTICS, INC., priority 2019, dated 2023).

Interferon alfa-2b
Storage temperature: time at room temp: up to seven
